Measured values published in patent publication US20230322953A1 (HARBOUR BIOMED SHANGHAI, published 2023).

The chains behind the UniProt entries cited, without tags or fusion partners. Residues count along the entry.
UniProt P16410, 36-223: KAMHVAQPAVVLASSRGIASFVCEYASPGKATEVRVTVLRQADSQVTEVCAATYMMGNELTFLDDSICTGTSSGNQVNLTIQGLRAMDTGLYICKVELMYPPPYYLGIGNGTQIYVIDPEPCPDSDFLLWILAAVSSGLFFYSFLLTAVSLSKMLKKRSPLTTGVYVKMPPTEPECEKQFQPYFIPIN

B1: HER2xCTLA4 bispecific antibody molecule PR001585 (bispecific antibody, human IgG1, kappa)
light: EVQLVESGGGLIQPGGSLRLSCAVSGFTVSKNYMSWVRQAPGKGLEWVSVVYSGGSKTYADSVKGRFTISRDNSKNTLYLQMNSLRAEDTAVYYCARAVPHSPSSFDIWGQGTMVTVSSKLEPKSSDKTHTPPPPPAS[about 200 residues not given here]
heavy: EVQLVESGGGLIQPGGSLRLSCAVSGFTVSKNYMSWVRQAPGKGLEWVSVVYSGGSKTYADSVKGRFTISRDNSKNTLYLQMNSLRAEDTAVYYCARAVPHSPSSFDIWGQGTMVTVSSKLEPKSSDKTHTPPPPPRT[about 450 residues with a human IgG1 Fc not given here]
notes: Structure 9 2xVH-IgG(HC+LC) (hexavalent symmetric); PR000210 IgG, PR000184 VH; first linker KL-H1_15-AS, second linker KL-H1_15-RT; Fc human IgG1
B2: HER2xCTLA4 bispecific antibody molecule PR001587 (bispecific antibody, human IgG1, kappa)
light: EVQLVESGGGLIQPGGSLRLSCAVSGFTVSKNYMSWVRQAPGKGLEWVSVVYSGGSKTYADSVKGRFTISRDNSKNTLYLQMNSLRAEDTAVYYCARAVPHSPSSFDIWGQGTMVTVSSKLEPKSSDKTHTPPPPPAS[about 200 residues not given here]
heavy: EVQLVESGGGLIQPGGSLRLSCAVSGFTVSKNYMSWVRQAPGKGLEWVSVVYSGGSKTYADSVKGRFTISRDNSKNTLYLQMNSLRAEDTAVYYCARAVPHSPSSFDIWGQGTMVTVSSKLEPKSSDKTHTPPPPPRT[about 120 residues not given here][about 100 residues not given here][human IgG1 Fc with changes not given here]
notes: Structure 9 2xVH-IgG; PR000210 IgG, PR000184 VH; first linker KL-H1_15-AS, second linker KL-H1_15-RT; Fc human IgG1 (S239D, I332E)

Target: T1, human CTLA4 on CHO-K1/hCTLA4 cells (human, UniProt P16410, in part)
T1 construct: whole, on cells; CHO-K1 cell line highly expressing human CTLA4; also called human CTLA4 cell
Experiment: flow cytometry on CHO-K1/hCTLA4 cells, Experiment 2

| Binder | EC50 [nM] | Maximum MFI [MFI] |
| --- | --- | --- |
| B1 | 1.58 | 1050 |
| B2 | 1.72 | 1040 |
